Like-named read-outs stand apart in the source and are kept apart here. Marks after values point to notes of the source that are not given here.
Conditions: 4-kDa FITC-dextran injected into mucosal side of isolated intestine, (fluorescence 3 min minus 0 min)/3 min, ex 485/em 538 nm, room temperature, mean ± SEM, N = 3

fluorescein isothiocyanate (FITC)-dextran [FITC-dextran]
Permeability (Ager-/- (RAGE KO) pups PND1): 13.4 ± 0.4^b units/min | Permeability (Ager-/- (RAGE KO) pups PND6): 16.9 ± 0.3^d units/min | Permeability (wild-type pups PND1): 13.0 ± 0.9^a units/min | Permeability (wild-type pups PND6): 17.1 ± 0.3^c units/min

Source: article PMC5554167, “Intestinal transepithelial permeability of oxytocin into the blood is dependent on the receptor for advanced glycation end products in mice” (Scientific Reports, 2017)
